The results in this text go back to patent publication US10815229B1, “Benzenesulfonamide compounds and their use as therapeutic agents” (Xenon Pharmaceuticals Inc., priority 2016, dated 2020).

By UniProt entry, the sequences of proteins in these tests, tags left out. Chains listed by the source or under a name are the forms on record and can include a tag or linker.
UniProt Q14524, other isoform, or with tags, fused parts or gaps: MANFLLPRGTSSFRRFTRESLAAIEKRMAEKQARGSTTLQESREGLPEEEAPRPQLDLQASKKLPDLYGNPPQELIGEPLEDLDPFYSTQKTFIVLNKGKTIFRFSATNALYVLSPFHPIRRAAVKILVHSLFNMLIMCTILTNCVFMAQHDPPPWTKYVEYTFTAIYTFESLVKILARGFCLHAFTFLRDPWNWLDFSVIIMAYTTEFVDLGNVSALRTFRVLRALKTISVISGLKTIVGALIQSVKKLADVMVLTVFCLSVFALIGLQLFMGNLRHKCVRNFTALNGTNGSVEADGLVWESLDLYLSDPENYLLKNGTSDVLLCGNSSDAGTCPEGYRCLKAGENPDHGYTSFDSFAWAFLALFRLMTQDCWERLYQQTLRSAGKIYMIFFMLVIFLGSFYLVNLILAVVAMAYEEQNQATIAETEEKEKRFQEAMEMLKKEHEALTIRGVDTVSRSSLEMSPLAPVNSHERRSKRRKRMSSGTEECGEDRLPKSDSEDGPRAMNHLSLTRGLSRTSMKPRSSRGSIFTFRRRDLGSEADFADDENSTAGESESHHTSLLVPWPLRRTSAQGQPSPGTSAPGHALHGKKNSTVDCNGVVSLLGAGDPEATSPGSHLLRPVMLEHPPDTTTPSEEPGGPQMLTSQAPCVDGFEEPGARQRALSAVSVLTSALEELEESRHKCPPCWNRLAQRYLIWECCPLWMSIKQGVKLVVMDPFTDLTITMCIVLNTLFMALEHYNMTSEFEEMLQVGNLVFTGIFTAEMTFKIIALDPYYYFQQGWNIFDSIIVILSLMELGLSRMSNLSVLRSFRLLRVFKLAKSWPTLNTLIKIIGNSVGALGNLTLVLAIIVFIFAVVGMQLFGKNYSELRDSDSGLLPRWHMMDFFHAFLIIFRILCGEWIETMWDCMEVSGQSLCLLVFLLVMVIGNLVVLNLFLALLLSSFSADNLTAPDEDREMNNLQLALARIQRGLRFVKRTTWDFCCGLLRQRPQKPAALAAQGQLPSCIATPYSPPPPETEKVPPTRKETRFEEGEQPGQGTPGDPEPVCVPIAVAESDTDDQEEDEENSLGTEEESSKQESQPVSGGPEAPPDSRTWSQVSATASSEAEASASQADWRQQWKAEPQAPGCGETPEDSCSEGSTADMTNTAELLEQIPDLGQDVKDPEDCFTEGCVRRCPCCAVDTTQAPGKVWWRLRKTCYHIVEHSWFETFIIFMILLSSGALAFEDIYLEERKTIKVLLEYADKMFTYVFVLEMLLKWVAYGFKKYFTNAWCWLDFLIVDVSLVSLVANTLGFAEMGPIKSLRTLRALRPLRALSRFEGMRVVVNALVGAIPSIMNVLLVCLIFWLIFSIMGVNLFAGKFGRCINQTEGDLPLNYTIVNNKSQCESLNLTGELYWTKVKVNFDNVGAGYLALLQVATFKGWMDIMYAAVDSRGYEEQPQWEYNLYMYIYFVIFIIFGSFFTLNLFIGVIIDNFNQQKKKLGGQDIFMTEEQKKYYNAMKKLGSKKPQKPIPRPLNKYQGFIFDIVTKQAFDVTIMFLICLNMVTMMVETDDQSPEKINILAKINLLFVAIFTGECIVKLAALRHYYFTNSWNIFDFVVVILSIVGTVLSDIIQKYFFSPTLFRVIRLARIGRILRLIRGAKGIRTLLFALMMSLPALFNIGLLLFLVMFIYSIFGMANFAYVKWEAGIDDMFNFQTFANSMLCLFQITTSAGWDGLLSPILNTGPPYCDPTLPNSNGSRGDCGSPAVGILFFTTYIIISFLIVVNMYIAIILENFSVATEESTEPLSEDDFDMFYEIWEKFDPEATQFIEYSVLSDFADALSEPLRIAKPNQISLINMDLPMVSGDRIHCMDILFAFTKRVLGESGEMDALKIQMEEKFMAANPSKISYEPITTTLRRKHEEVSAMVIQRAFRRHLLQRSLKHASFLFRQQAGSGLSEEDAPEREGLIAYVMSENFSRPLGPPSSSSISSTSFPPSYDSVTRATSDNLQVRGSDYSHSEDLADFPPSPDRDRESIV

This series deals with NaV1.5 (Homo sapiens (Human), UniProt Q14524). The series can be described thus: Sodium Influx Assay (Flux), NaV1.5. To be noted: read-out: Flux NaV1.5 IC50; Trex HEK293 cells, ANG2 dye; arithmetic mean.

For orientation: IC50 means the concentration that gives 50% inhibition. Regarding “(S)-2-fluoro-4-((1-(2-hydroxybenzyl)-pyrrolidin-3-yl)(methyDamino)-5-methyl-N-(thiazol-4-yl)benzenesulfonamide [Example 113]”, the IC50 was determined as 13 µM.
